Data: patent US20240058275A1, “NANO-SILICA - IN YEAST PARTICLE (YP) DRUG ENCAPSULATION APPROACH FOR IMPROVED THERMAL AND HYDROLASE STABILITY OF YP DRUG DELIVERY FORMULATIONS” (UNIVERSITY OF MASSACHUSETTS, priority 2022, published 2024)

Assay: Encapsulation efficiency of proteins ensilicated in GPs with 100% TEOS
Format: physicochemical
Conditions: 100% TEOS prepolymerized at pH 2, SDS-PAGE

Substance: Glucose oxidase
- % encapsulation efficiency in GPs: 98 ± 3%
